Screens (PubChem)
GLP-1R agonist: activates the human GLP-1 receptor | AID 624172 | Potency, µM (top dose mostly 45.6 µM), hits mostly activators | P43220 | hit rate 0.007% among 380,000 | HEK293 GLP-1R CRE-luciferase, luminescence, 4-6 h; cells express a hypersensitive GLP-1R form
PTHR1 ag: agonists of human PTHR1 parathyroid hormone receptor; Potency, µM (top dose mostly 115 µM), hits mostly activators; HEK293 GP2 PTHR1 cells, GloSensor cAMP luminescence, 1 h; hit rate 0.075% among 410,000; Q03431; AID 743266; note: nearly all actives have a fitted effect of over 55% in size
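HEK-293-derived GP2 cells expressing PTHR1 and a GloSensor cAMP reporter, 3,000/well, plated overnight, given luciferin plus IBMX (each 0.5 mM as added) for 1 h at 37 °C, then compound for 1 h at 37 °C. Luminescence was read after 15 min at room temperature.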
Pin1 inhibitor: inhibitors of human Pin1; Q13526; AID 504891; Potency, µM (series often up to 115 µM), most hits filed as inhibitors; Pin1 FP peptide displacement, HiFluor488, 10 min; hit rate 0.009% among 390,000; active = well fitted inhibition curve with a large enough effect in the polarisation, with a control signal flat, not every such curve was filed as active; inconclusive = small, poorly fitted or top-dose-only effect, or effect the other way, or a change in a side signal; inactive = no such curve, though single readings can be large or run the other way; the % refers to the polarisation
GLP1R inv ag: acts as inverse agonist at human GLP-1 receptor; HEK293 GLP-1R CRE-luciferase, luminescence, 24 h; GLP-1R form is constitutively active; hit rate 1.6% among 410,000; AID 624417; P43220; Potency, µM (titrated, usually from 38.3 µM), actives largely listed as inhibitors; note: nearly all actives have a fitted effect of over 55% in size
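qHTS in 1536-well format: reporter HEK293 cells expressing constitutive GLP-1R activity in DMEM + 10% Nu serum, 24 hr with compounds at 37 deg C, luminescence read after 12 min with detection reagent.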
HEK293 tox: cytotoxicity counter-screen for GLP-1 receptor inverse agonists. HEK293 cAMP-luciferase reporter cells, luminescence, 24 h. AID 624418. Potency, µM (highest dose often 38.3 µM), most hits filed as inhibitors. hit rate 0.13% among 410,000;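 note: loss of luciferase light is scored as toxicity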
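Luminescence readout: signal drop marks cytotoxicity. Plated cells grew 12 h at 37 °C, 5% CO2, received 23 nL compound for 24 h, then got luciferase reagent, read after 12 min at RT.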
miR-21 reporter: miR-21 reporter, rising signal; HeLa miR-21 FLuc reporter, luciferase, 48 h; Potency, µM (titrated, usually from 38.3 µM); AID 2288; 340,000 tested, under 10 active; active = well fitted rising curve with a large enough effect; inconclusive = small, poorly fitted or top-dose-only effect; inactive = no such curve, though single readings can be large or run the other way;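 further: miR-21 action dims this reporter so a rising signal means less miR-21 action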
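HeLa cells stably expressing CMV-driven firefly luciferase with a downstream miR-21 binding sequence, endogenously expressing miR-21, were treated with titrations (up to about 40uM final) for 48 hours at 37 degree Celsius. Luciferase luminescence was read after lysis.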
Numbers stand for hits; - = inactive; ? = inconclusive; . = no result given; ! = not confirmed by another sample. A selection: hits, their analogues and other compounds. The true share with any hit is near 1.7%. Unless noted, calls come from the whole dose curve; as a rule, active = well fitted curve in the direction sought with a large enough effect; inconclusive = small, poorly fitted or top-dose-only effect, or another doubt; inactive = no such curve, though single readings can be large; an effect the other way counts as inactive or inconclusive.

SMILES	GLP-1R agonist	PTHR1 ag	Pin1 inhibitor	GLP1R inv ag	HEK293 tox	miR-21 reporter
COc1cccc(CN(C)C(c2ccccc2)c2ccccc2)c1OC	-	-	-	?	-	-
COc1cc(OC)c(OC)cc1CN(C)C(c1ccccc1)c1nnnn1-c1ccccc1C (stereo not given)	-	-	-	11µM	-	-
COc1ccc(CCn2c(N)cc(=O)[nH]c2=O)cc1OC	-	-	-	-	-	-
COc1ccc(CCn2c(N)cc(=O)[nH]c2=S)cc1OC	10µM	-	-	-	-	-
Cc1ccc(C)c(-c2ccc(=O)n(C(C)C(=O)Nc3ccccc3C(F)(F)F)n2)c1 (stereo not given)	.	-	-	?	-	-
Cc1cccc(C(=O)NNC2=C(C(=O)C(F)(F)F)CCC2)c1O	-	-	-	2.8µM	?	-
Cc1ccccc1Nc1cc(C(=O)NC2CCC(C)CC2)c2ccccc2n1 (stereo not given)	.	-	-	?	-	-
C#Cc1ccc(C(=O)Nc2ccc(N3CCC(C)CC3)c(C(N)=O)c2)cc1	-	-	-	8.9µM	-	-
CCOC(=O)C(=CNNc1cccc(Cl)c1)C(=O)OCC	-	-	?	5µM	-	-
O=C(CSc1nc2ccccc2o1)Nc1nc2c(s1)CCCC2	-	-	?	2.5µM	-	.
FC(F)(F)c1ccncc1-c1nnnn1-c1ccc(Cl)cc1	-	-	-	-	-	-
FC(F)(F)c1nc(N2CCCC2)ncc1-c1nnnn1-c1ccc(Cl)cc1	-	-	-	7.1µM	-	-
CN(Cc1cccs1)C(=O)c1ccc(S(=O)(=O)N2CCCCC2)cc1	-	-	-	-	-	-
O=C(C1CCCN(S(=O)(=O)c2ccc(Cl)cc2)C1)N(Cc1cccs1)C1CC1 (stereo not given)	-	-	-	10µM	-	-
Cc1cc2c(s1)c1cnn(Cc3ccc(C)c(F)c3)c(=O)c1n2C	.	.	-	.	.	.
O=[N+]([O-])c1ccc(/C=N/N=C/c2ccc([N+](=O)[O-])o2)o1	-	-	-	?	10µM	?
Cc1nc2ccccc2n1CCc1nc2c3ccccc3nc(SCC(=O)NCc3ccco3)n2n1	-	-	-	?	10µM	-
COc1ccccc1OCC(=O)/C=C1/N(C)c2ccccc2C1(C)C	-	-	?	10µM	-	-
Clc1ccc(-c2noc3ncnc(NCCc4ccccc4)c23)cc1	-	-	-	-	-	-
CCOc1c(C)cnc2c1c(=O)n(Cc1ccc(Cl)cc1)c(=O)n2C	-	-	?	-	-	-
CCOc1c(C)cnc2c1c(=O)n(Cc1cccc(Cl)c1)c(=O)n2C	-	-	-	10µM	-	-
CCOC(=O)c1c(C)oc2c1c(C=NCc1ccccn1)c(O)c1ccccc12	-	-	-	22µM	?	-
CCOC(=O)c1c(C)oc2c1c(C=NCC1CCCO1)c(O)c1ccccc12 (stereo not given)	-	-	-	-	-	-
CCc1ccc(CN2CCc3nc(N4CCN(CC)CC4)ncc3C2)cc1	.	-	-	5µM	-	-
Cc1ccc2nc(-c3cc(-c4ccccc4)no3)cn2c1	-	-	-	4µM	-	-
SMILES	GLP-1R agonist	PTHR1 ag	Pin1 inhibitor	GLP1R inv ag	HEK293 tox	miR-21 reporter
Cc1ccc2c(c1)cc(C(=O)NCc1ccc(F)cc1)n2C	.	-	-	?	-	-
Cc1cccc(C(=O)Nc2ccc(C(=O)OCc3cc(=O)n4nc(CC(C)C)sc4n3)cc2)c1	.	-	-	-	-	-
O=S(=O)(c1ccc(Cl)c(NC(=S)N/N=C/c2c(F)cccc2F)c1)N1CCOCC1	-	-	-	2.5µM	?	-
O=S(=O)(c1ccc(Cl)c(NC(=S)Nc2ccccc2N2CCOCC2)c1)N1CCOCC1	-	-	-	-	-	-
CCC(C(=O)Nc1ccc(C(=O)OC)cc1)n1nc(-c2ccc(C)c(C)c2)ccc1=O (stereo not given)	.	-	-	-	-	-
CCC(C(=O)Nc1ccc(C(=O)OC)cc1)n1nc(-c2ccc(C)cc2)c2c(c1=O)CCCC2 (stereo not given)	.	-	-	2.5µM	-	-
COc1cc(C(=O)Oc2ccccc2/C=N/NC(=O)c2ccc(Cl)cc2Cl)cc(OC)c1OC	-	-	-	2.2µM	-	-
CCCCC(CC)CNC(=O)CN1C(=O)CSc2ccc(S(=O)(=O)N3CCOCC3)cc21 (stereo not given)	.	-	-	-	-	-
Cc1ccc(C(=O)c2c(C)oc3c2C(=O)C(=O)c2ccccc2-3)cc1	-	-	-	?	5µM	?
N#Cc1ccc(NS(=O)(=O)c2ccc3c(c2)CCC(=O)N3)cc1	.	.	-	.	.	.
CCOc1ccccc1N1CC(c2nc3ccccc3n2CCCCOc2ccccc2)CC1=O (stereo not given)	.	-	-	-	-	-
COc1ccc(OCCCCn2c(C3CC(=O)N(c4cccc(Cl)c4)C3)nc3ccccc32)cc1 (stereo not given)	.	-	-	10µM	-	?
Cc1ccc(OCCCn2c(C3CC(=O)N(c4cccc(Cl)c4)C3)nc3ccccc32)c(C)c1 (stereo not given)	.	-	-	?	-	-
O=C1CC(c2nc3ccccc3n2CCCCOc2ccccc2)CN1c1ccccc1Cl (stereo not given)	.	-	-	10µM	-	?
COC(=O)c1ccc(C23CC4(C2)[C@H](CN(Cc2cccnc2)[C@@H]4c2ccccc2)C3c2ccccc2)cc1 (stereo not given in full)	-	-	-	8.9µM	-	-
FC(F)(F)c1ccc(C2[C@H]3CN(Cc4ccc(-c5ccccc5)cc4)[C@H](c4ccccc4)C34CC2(c2cccnc2)C4)cc1 (stereo not given in full)	-	-	-	-	-	-
FC(F)(F)c1ccc(C2[C@H]3CN(Cc4cccnc4)[C@H](c4ccccc4)C34CC2(c2cccnc2)C4)cc1 (stereo not given in full)	-	-	-	11µM	?	?
COc1ccc(CCNC[C@H](O)COc2cccc(C)c2)cc1OC	-	.	.	.	.	.
Cc1ccc(-c2ccc(/C=N/c3ncn[nH]3)o2)cc1Cl	-	-	-	8.9µM	?	-
Cc1cc(C)n(-c2ccc(C(=O)Nc3ccc(S(=O)(=O)NCc4ccco4)cc3)cc2)n1	-	-	-	11µM	-	?
CCOC(=O)N1CCc2c(sc3c2c(=O)n(Cc2ccccc2)c(=O)n3Cc2cccc(C)c2)C1	-	-	-	10µM!	-	-
